Data: patent US10894035B2, “Use of indole compounds to stimulate the immune system” (priority 2015, dated 2021)

What was measured:
Assay in all cases: sPLA2 specificity panel (Table 1)
Assay type in all cases: biochemical
Conditions in all cases: panel of secreted PLA2, result in words
sPLA2GIIA = target: T1, sPLA2GIIA (Homo sapiens, UniProt P14555)
T1 sequence (P14555 21-144): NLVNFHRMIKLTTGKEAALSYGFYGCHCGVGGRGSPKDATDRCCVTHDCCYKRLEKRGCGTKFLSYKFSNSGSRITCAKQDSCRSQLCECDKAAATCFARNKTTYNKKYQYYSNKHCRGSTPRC
From the text: IC50 values for a panel of secreted Phospholipase A2 (sPLA2) are shown.

sPLA2GIIF = target: T2, sPLA2GIIF (Homo sapiens, UniProt Q9BZM2)
T2 sequence (Q9BZM2 21-168): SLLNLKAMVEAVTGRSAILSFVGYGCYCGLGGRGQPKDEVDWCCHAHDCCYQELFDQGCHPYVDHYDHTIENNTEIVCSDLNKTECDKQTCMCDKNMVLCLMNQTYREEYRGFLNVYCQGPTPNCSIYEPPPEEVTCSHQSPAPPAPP

sPLA2GX = target: T3, sPLA2GX (Homo sapiens, UniProt O15496)
T3 sequence (O15496 43-165): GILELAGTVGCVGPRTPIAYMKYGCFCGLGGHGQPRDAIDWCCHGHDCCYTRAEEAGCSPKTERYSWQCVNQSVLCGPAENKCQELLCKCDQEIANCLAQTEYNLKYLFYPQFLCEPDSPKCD

CCc1c(C(=O)C(N)=O)c2c(OCC(=O)O)cccc2n1Cc1ccccc1 [Compound B]
significant IC50: IC50 sPLA2GIIA (sPLA2GIIA) | IC50 sPLA2GIIF (sPLA2GIIF) | IC50 sPLA2GX (sPLA2GX)
